# Measured affinities in a library of Ab-91 heavy chain variants

From the AlphaSeq antibody data of Engelhart et al. 2022 (doi:10.1038/s41597-022-01779-4), copy in the FLAb collection.

Target peptide (SARS-CoV-2 spike, HR2 region): PDVDLGDISGINAS

Ab-91 is the parent antibody, in scFv form: VL, then a (GGGGS)3 linker, then VH. The light chain is unchanged in all variants.
VL: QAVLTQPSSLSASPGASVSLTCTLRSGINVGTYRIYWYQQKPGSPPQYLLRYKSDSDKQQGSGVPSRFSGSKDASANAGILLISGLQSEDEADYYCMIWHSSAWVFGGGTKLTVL
VH: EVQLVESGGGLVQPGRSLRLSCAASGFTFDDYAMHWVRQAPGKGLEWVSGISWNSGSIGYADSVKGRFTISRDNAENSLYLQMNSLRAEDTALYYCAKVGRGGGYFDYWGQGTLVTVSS

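The starting antibody came from a phage panning campaign against this peptide. The library (AAYL51) carries one to three amino acid substitutions per variant, with no insertions or deletions. The assay is AlphaSeq: two haploid yeast populations carry antibody and antigen on their surface. The frequency of each diploid, read from paired DNA barcodes, reflects how well the two displayed proteins bind. The ratio of observed to expected reads was calibrated, replicate by replicate, on BCL2-family standards whose Kd was known from biolayer interferometry. The assay was run in three technical replicates.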

Changes read parent residue, position, new residue, counted from the first residue of the VH shown. Values are log10 of the apparent Kd in nM; lower means stronger binding. A mean of the replicates is given; it leaves out those without a signal. An entry "ND" has no value in the source: the pair was not observed among the diploids in that replicate. This suggests poor binding but is not conclusive.

{"changes": "G26F+G102A+Y105G", "log10 Kd, replicates": "ND ND ND", "mean log10 Kd (nM)": "ND", "empty controls": "1/9 (3.32)"}
{"changes": "S63C+Y105I", "log10 Kd, replicates": "2.90 3.14 3.02", "mean log10 Kd (nM)": "3.02", "empty controls": "5/9 (5.18)"}
{"changes": "M34D+G56D+Y105N", "log10 Kd, replicates": "ND ND ND", "mean log10 Kd (nM)": "ND", "empty controls": "0/9"}
{"changes": "D30W+I51C+F106P", "log10 Kd, replicates": "4.30 5.27 4.41", "mean log10 Kd (nM)": "4.66", "empty controls": "7/9 (4.97)"}
{"changes": "A33M+V99P+G103P", "log10 Kd, replicates": "4.69 ND ND", "mean log10 Kd (nM)": "4.69", "empty controls": "2/9 (4.40)"}
{"changes": "F27S+I58T+D62Y", "log10 Kd, replicates": "1.55 1.78 1.32", "mean log10 Kd (nM)": "1.55", "empty controls": "2/9 (4.25)"}
{"changes": "G59R+V64P+Y105R", "log10 Kd, replicates": "ND ND ND", "mean log10 Kd (nM)": "ND", "empty controls": "0/9"}
{"changes": "F27Y+K65L+V99K", "log10 Kd, replicates": "ND ND ND", "mean log10 Kd (nM)": "ND", "empty controls": "1/9 (4.10)"}
{"changes": "G59I+A61K+S63Q", "log10 Kd, replicates": "6.60 5.67 4.73", "mean log10 Kd (nM)": "5.67", "empty controls": "2/9 (4.12)"}
{"changes": "D30Y+N54P+G103E", "log10 Kd, replicates": "ND ND ND", "mean log10 Kd (nM)": "ND", "empty controls": "1/9 (3.64)"}
{"changes": "K65M+G104Q+F106D", "log10 Kd, replicates": "ND ND ND", "mean log10 Kd (nM)": "ND", "empty controls": "0/9"}
{"changes": "G26E+H35S+W53V", "log10 Kd, replicates": "ND ND ND", "mean log10 Kd (nM)": "ND", "empty controls": "0/9"}
{"changes": "A33Y+M34S+S63I", "log10 Kd, replicates": "5.03 4.24 4.49", "mean log10 Kd (nM)": "4.59", "empty controls": "8/9 (5.01)"}
{"changes": "G100I+Y105G", "log10 Kd, replicates": "ND 2.52 ND", "mean log10 Kd (nM)": "2.52", "empty controls": "0/9"}
{"changes": "Y32N+I51G+V64N", "log10 Kd, replicates": "6.16 ND ND", "mean log10 Kd (nM)": "6.16", "empty controls": "4/9 (4.64)"}
{"changes": "I51K+G100S+Y108W", "log10 Kd, replicates": "5.66 ND ND", "mean log10 Kd (nM)": "5.66", "empty controls": "0/9"}
{"changes": "F29R+A33K+D62Q", "log10 Kd, replicates": "1.92 1.74 1.48", "mean log10 Kd (nM)": "1.72", "empty controls": "0/9"}
{"changes": "W53D+N54R", "log10 Kd, replicates": "2.11 4.62 3.91", "mean log10 Kd (nM)": "3.55", "empty controls": "0/9"}
{"changes": "M34Q+Y105D+D107P", "log10 Kd, replicates": "4.60 5.98 ND", "mean log10 Kd (nM)": "5.29", "empty controls": "6/9 (4.97)"}
{"changes": "S55V+Y60N", "log10 Kd, replicates": "ND ND ND", "mean log10 Kd (nM)": "ND", "empty controls": "0/9"}
{"changes": "Y32E+Y60E+G102Q", "log10 Kd, replicates": "4.78 4.90 5.20", "mean log10 Kd (nM)": "4.96", "empty controls": "5/9 (4.35)"}

Picked from the list: the 2 lowest averages where every replicate gave a value.

{"changes": "F27S+I58T+D62Y", "log10 Kd, replicates": "1.55 1.78 1.32", "mean log10 Kd (nM)": "1.55", "empty controls": "2/9 (4.25)"}
{"changes": "F29R+A33K+D62Q", "log10 Kd, replicates": "1.92 1.74 1.48", "mean log10 Kd (nM)": "1.72", "empty controls": "0/9"}

Three control strains display no target. For library AAYL51, 21% of the pairings with them gave a signal, with a median of 4.54 and one signal in twenty below 3.26, so weak values seen in few replicates may be background. The control count says in how many pairings with the empty strains this scFv gave a signal, with their mean in brackets. Parent in this assay: reference entry 1.86, copy in this library 0.88.